Test [1] addresses T1, α4β1 integrin (Homo sapiens (Human), UniProt P05556+P13612). Nature of the test: Integrin Adhesion Assay: Protocol 5 (VCAM-coated plate, RPMI-8866 cells with stable LOF mutation of the ITGB7 gene).
Test [2] concerns the target T2, α4β7 integrin (Homo sapiens (Human), UniProt P13612+P26010). Put plainly: Integrin Adhesion Assay: Protocol 4 (MAdCAM-coated plate, RPMI-8866 cells with stable LOF mutation of the ITGB1 gene).
The target of test [3] is T2, α4β7 integrin. Put plainly: Integrin Adhesion Assay: Protocol 1 (MAdCAM-coated plate, RPMI-8866 cells, CellTiter GLO readout). The conditions noted are these: read-out: Mean IC50 α4β7. (Cellular ATP, detected with luciferase, serves as a proxy for viable cell number.)
Test [4] concerns the target T1, α4β1 integrin. Nature of the test: Integrin Adhesion Assay: Protocol 2 (VCAM-coated plate, Jurkat cells, CellTiter GLO readout). The conditions noted are these: read-out: Mean IC50 α4β1, determined by at least one of the assays described (protocol not specified).
Setting [5] is: read-out: Mean IC50 α4β1 KO, Protocol 5, RPMI-8866 cells with LOF mutation of ITGB7, VCAM.
Where [6] appears, read: read-out: Mean IC50 α4β7 KO, Protocol 4, RPMI-8866 cells with LOF mutation of ITGB1, MAdCAM.

By UniProt entry, the sequences of proteins in these tests, tags left out. Residues count along the entry.
UniProt P05556, 21-798 limits assumed: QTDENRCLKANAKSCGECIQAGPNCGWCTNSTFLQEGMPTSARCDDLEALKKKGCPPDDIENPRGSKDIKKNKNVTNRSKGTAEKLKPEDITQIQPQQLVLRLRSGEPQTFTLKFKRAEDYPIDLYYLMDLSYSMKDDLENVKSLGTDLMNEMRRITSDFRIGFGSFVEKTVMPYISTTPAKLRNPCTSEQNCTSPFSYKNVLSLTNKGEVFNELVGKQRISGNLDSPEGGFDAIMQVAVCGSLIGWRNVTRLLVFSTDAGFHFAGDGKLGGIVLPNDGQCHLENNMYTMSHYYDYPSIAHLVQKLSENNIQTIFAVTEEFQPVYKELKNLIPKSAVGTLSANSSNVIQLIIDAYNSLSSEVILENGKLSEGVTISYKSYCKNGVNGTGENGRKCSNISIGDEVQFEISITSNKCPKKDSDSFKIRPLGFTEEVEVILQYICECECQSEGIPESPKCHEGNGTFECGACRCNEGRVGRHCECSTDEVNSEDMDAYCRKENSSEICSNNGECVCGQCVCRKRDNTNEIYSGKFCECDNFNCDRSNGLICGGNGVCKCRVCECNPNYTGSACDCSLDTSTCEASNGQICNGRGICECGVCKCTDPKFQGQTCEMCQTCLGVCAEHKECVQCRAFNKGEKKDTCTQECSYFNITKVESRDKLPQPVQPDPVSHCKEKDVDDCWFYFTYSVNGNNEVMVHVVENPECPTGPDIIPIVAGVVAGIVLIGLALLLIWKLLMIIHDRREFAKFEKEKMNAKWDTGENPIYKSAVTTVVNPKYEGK
UniProt P13612, 34-1032 limits assumed: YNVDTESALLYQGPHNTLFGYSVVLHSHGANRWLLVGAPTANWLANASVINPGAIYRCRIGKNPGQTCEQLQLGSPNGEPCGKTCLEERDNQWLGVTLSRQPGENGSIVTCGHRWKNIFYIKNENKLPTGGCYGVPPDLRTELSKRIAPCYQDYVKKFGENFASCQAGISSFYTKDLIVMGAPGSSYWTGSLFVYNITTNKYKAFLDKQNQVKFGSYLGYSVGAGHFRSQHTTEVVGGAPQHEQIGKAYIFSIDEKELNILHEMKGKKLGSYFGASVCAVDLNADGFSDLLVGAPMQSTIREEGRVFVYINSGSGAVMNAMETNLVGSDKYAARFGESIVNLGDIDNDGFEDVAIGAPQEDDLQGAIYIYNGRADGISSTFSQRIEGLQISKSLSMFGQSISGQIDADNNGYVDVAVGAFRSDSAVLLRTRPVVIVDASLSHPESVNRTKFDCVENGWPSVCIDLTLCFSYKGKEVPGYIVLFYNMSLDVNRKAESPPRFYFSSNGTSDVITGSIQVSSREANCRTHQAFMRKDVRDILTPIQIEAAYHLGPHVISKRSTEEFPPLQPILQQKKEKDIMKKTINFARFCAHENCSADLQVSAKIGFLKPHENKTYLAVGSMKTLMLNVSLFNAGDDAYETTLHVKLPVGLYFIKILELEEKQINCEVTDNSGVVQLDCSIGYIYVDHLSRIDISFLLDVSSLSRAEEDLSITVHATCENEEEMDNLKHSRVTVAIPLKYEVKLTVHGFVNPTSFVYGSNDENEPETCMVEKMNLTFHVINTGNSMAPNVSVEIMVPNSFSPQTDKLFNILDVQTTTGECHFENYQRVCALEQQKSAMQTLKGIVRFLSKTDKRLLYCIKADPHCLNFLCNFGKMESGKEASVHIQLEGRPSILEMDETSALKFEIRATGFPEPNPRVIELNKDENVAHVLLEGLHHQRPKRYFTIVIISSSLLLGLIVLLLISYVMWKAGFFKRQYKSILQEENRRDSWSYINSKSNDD
UniProt P26010, 20-798 limits assumed: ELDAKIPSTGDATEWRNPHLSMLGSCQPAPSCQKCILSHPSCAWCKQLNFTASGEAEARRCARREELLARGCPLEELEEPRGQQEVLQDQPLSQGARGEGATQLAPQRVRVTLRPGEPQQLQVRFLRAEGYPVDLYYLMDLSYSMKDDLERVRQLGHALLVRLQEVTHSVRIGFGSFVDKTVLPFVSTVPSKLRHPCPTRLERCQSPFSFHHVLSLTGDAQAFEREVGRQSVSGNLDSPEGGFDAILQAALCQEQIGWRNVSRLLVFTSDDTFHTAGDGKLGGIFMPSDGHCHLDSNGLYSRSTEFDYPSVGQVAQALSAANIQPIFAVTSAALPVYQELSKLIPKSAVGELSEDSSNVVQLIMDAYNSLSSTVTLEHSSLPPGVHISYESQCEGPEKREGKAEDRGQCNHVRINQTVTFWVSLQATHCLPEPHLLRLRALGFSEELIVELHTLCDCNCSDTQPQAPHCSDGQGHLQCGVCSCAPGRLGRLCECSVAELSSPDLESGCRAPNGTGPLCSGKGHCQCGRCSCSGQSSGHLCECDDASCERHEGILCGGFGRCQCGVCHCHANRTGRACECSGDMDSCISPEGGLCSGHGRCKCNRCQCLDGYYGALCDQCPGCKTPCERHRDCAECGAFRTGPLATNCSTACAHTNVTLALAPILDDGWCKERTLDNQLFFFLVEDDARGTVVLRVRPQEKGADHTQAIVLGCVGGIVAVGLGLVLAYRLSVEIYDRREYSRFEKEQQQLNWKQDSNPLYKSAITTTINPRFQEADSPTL

Bounds are passed on as bounds.

As a reminder, the IC50 is the concentration that gives 50% inhibition.

With `Cn1c(=O)c(-c2cccc3c(C[C@H](NC(=O)c4c(F)cccc4F)C(=O)O)cccc23)c(C(F)(F)F)c2cc(CCN)ccc21`, on α4β1 integrin [1] (setting [5]), the half-inhibitory concentration (IC50) lay in the range of 100 to 1000 nM.
On to `COc1cc2c(c(OC)c1-c1cccc3c(C[C@H](NC(=O)C4(C(F)(F)F)CCN(CC(F)(F)F)CC4)C(=O)O)cccc13)CN(C(C)C)CC2`, for which the figures for the IC50 at α4β1 integrin [1] (setting [5]) and on α4β7 integrin [2] (setting [6]) were 100 to 1000 nM and under 10 nM, respectively.
As for `Cn1c(=O)c(-c2cccc3c(C[C@H](NC(=O)c4c(F)cc5c(cnn5CC(F)(F)F)c4F)C(=O)O)cccc23)c(C(F)(F)F)c2ccccc21`, the IC50 on α4β7 integrin [3] was 10 to 100 nM; at α4β1 integrin [1] (read-out: Mean IC50 α4β1 KO^b, RPMI-8866 cells with stable LOF mutation of the ITGB7 gene), over 1000 nM.
Consider `Cn1ccc(=O)n(-c2cccc3c(C[C@H](NC(=O)c4c(F)cc5nc(CC(F)(F)F)[nH]c5c4F)C(=O)O)cccc23)c1=O`, for which the IC50 at α4β1 integrin [4] is over 1000 nM.
In the case of `CN(C)c1ccc2c(C(F)(F)F)c(-c3cccc4c(C[C@H](NC(=O)c5c(F)cc(N6CCOC[C@@H]6C(F)(F)F)cc5F)C(=O)O)cccc34)c(=O)n(C)c2c1`, the half-inhibitory concentration (IC50) at α4β7 integrin [3] (protocol not given) and on α4β7 integrin [2] (setting [6]) was 100 to 1000 nM throughout.
As for `COc1cc(CN(C)C)cc(OC)c1-c1cccc2c(C[C@H](NC(=O)c3c(C)cccc3F)C(=O)O)cccc12`, the concentration for half-maximal inhibition (IC50) was over 1000 nM at α4β1 integrin [1] (read-out: Mean IC50 α4β1 KO^b, RPMI-8866 cells with stable LOF mutation of the ITGB7 gene, tested form: HCl) and under 10 nM at α4β7 integrin [2] (read-out: Mean IC50 α4β7 KO^a, RPMI-8866 cells with stable LOF mutation of the ITGB1 gene, tested form: HCl).
As to `COc1c(CN2CCCCC2)ccnc1-c1cccc2c(C[C@H](NC(=O)C3(C(F)(F)F)CCN(CC(F)(F)F)CC3)C(=O)O)cccc12`, the IC50 at α4β1 integrin [1] (setting [5]) is over 1000 nM; on α4β7 integrin [2] (setting [6]), 10 to 100 nM.

Values taken from patent US20250313535A1, “ALPHA 4 BETA 7 INTEGRIN MODULATORS AND USES THEREOF” (DICE MOLECULES SV, INC., priority 2022, published 2025).
